# Earlier results as cited in patent US20260248947A1, “Methods of Treating Cancer Using Anti-HER2 Antibody-Drug Conjugates and HER2 Kinase Inhibitors” (Seagen Inc., priority 2023, published 2026).
# Key:
# [1] = system: HER2+ locally advanced or metastatic breast cancer (LA/mBC); conditions: subjects that progressed following taxane plus trastuzumab treatment; cited from earlier work
# [2] = system: HER2-low metastatic breast cancer; conditions: heavily pretreated patients; cited from earlier work
substance,measurement,setting,value
trastuzumab deruxtecan [T-DXd],overall response (either complete or partial response),[1],79.7%
same,subjects alive without disease progression at 12 months,[1],75.8%
same,improvement of median overall survival compared with standard single-agent chemotherapy,[2],6.6 months
same,improvement of median progression-free survival compared with standard single-agent chemotherapy,[2],4.8 months
